Test results published in patent US8329720B1 (Pisgah Laboratories, Inc., priority 2007, dated 2012).

Test: Modified dose dumping protocol: ethanol solutions in the absence of the 0.1N HCl media
Details: 0.1N HCl with 0% EtOH, and 5, 20, 40% EtOH without acid; result in words

## COc1ccc2c3c1O[C@H]1C(=O)CC[C@@]4(O)[C@@H](C2)N(C)CC[C@]314.Cl [oxycodone hydrochloride, reference compound]
  dissolution profile as a function of ethanol concentration: dissolution profile resembling equilibrium solubility was obtained with each of the four conditions
